AlphaSeq binding of Ab-14 heavy chain variants to a spike HR2 peptide

Source: Li et al. 2023 (doi:10.1038/s41467-023-39022-2), MIT Lincoln Laboratory and A-Alpha Bio; data file from the FLAb repository.

Antigen: PDVDLGDISGINAS, a 14-residue peptide of the SARS-CoV-2 spike HR2 region.

Parent: Ab-14, a human scFv built as VH, a (GGGGS)3 linker, VL. Only the CDRs of the heavy chain vary.
VH: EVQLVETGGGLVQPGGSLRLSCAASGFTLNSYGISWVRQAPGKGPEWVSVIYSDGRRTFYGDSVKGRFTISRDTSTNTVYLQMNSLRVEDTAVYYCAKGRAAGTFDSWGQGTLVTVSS
VL: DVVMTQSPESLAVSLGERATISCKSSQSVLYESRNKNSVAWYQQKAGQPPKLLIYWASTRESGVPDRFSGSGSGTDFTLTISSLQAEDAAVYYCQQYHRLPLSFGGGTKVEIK

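These sequences belong to a second round, designed from the earlier measurements on random variants of the parent. Several design methods are mixed in this list. In AlphaSeq, yeast of one mating type display the scFv and yeast of the other type display the target. The frequency of each diploid, read from paired DNA barcodes, reflects how well the two displayed proteins bind. Each replicate has its own calibration line, from reference interactions of the BCL2 family. Each pool was mated in six replicate cultures.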

Each variant is given by its three heavy chain CDRs, as the data file delimits them; those of the parent are GFTLNSYGIS, VIYSDGRRTFYGDSVK, GRAAGTFDS. Affinities are written as log10 Kd with Kd in nM; a lower number is a better binder. The mean shown is taken over the replicates in which the pair was detected. Where no diploid with the target was found in any replicate, the entry reads "nd": below detection, most likely a poor binder, though not proof of it. Order: sorted from the lowest average up, undetected variants last. The parent sequence was in this pool as ten entries: three were never detected, three once, and four in most replicates, with averages from 0.34 to 2.37. The range of this assay differs from that of the first round, and the authors advise against merging the two. The authors' rule: three or more of the six replicates give a measured affinity, fewer mean a poor binder. Three control strains display no target. For all heavy chain designs, 1% of the pairings with them gave a signal, with a median of 2.08 and one signal in twenty below 0.84, so weak values seen in few replicates may be background.

CDR-H1	CDR-H2	CDR-H3	log10 Kd (nM), mean	detected
GFDLNEYGIS	VIYADGVRTAYADDVK	GNVAGTFDV	-2.24	6 of 6
GFDLNEYGIS	VIYADGMRTAYSDSVK	GSNAGTFDT	-1.43	6 of 6
GFDLDEYGIS	VIYADGMRTAYADSVK	GTNAGTFDV	-1.20	6 of 6
KFQLNSYGIS	VIYSDGRRTFYSDSVK	GRTAGTFDS	-1.07	1 of 6
GFDLDEYGIS	VIYADGRRTFYADSVK	GEAAGTFDF	-0.94	6 of 6
GFDLDEYGIS	VIYADGMRTAYADKVK	GNVAGTFDI	-0.67	6 of 6
GFTLNEYGIS	VIYADGRRTFYGDSVK	GRAAGTFDI	-0.65	6 of 6
GFDLEEYGIS	VIYADGMRTAYADSVK	GQNAGTFDV	-0.64	6 of 6
GFDINEYGIS	VIYADGRRTFYTDSVK	GGNAGTFDV	-0.63	6 of 6
GFDLNEYGIS	VIYADGRRTFYADSVK	GNVAGTFDE	-0.53	6 of 6
GFDLNEYGIS	VIYADGMRTSYADSVK	GNVAGTFDT	-0.49	6 of 6
GFDLEEYGIS	VIYADGQRTFYSDSVK	GENAGTFDI	-0.45	6 of 6
GFDLDEYGIS	VIYADGKRTAYANSVK	GENAGTFDV	-0.40	6 of 6
GFDLNEYGIS	VIYADGMRTAYADSVK	GQTAGTFDT	-0.36	6 of 6
GFDLDEYGIS	VIYADGRRTAYADSVK	GNQAGTFDV	-0.35	6 of 6
GFDLNEYGIS	VIYADGRRTFYIDSVK	GEAAGTFDI	-0.27	6 of 6
GFDLNEYGIS	VIYADGSRTAYADKVK	GNNAGTFDV	-0.22	6 of 6
GFDLNEYGIS	VIYADGKRTAYSDSVK	GEAAGTFDV	-0.13	6 of 6
GFDLNEYGIS	VIYADGQRTFYTDSVK	GETAGTFDV	-0.12	6 of 6
GFDLNEYGIS	VIYADGVRTSYADSVK	GEVAGTFDQ	-0.03	6 of 6
GFDLNSYGIS	VIYSDGRRTFYGDSVK	GRTAGTFDV	0.01	6 of 6
GFDLNSYGIS	VIYSDGRRTFYSDQVK	GQAAGTFDS	0.01	6 of 6
GFDLNEYGIS	VIYADGKRTFYADSVK	GSEAGTFNM	0.02	6 of 6
GFDLNQYGVS	VIYSDGRRTFYGDSVK	GRAAGTFDS	0.02	6 of 6
GFELNEYGIS	VIYSDGRRTFYGDSVK	GKAAGTFDL	0.28	6 of 6
GFDLNEYGIS	VIYSDGRRTFYGDSVK	GRAAGTFDI	0.28	6 of 6
GFDLNEYGIS	VIYADGRRTAYVDSVK	GEAAGTFDS	0.50	6 of 6
GFSLNSYGIS	VIYSDGRRTFYGDSVK	GRIAGTFDT	0.65	6 of 6
GFQLNDYGIS	VIYSDGRRTFYKDSVK	GRAAGTFDS	0.75	6 of 6
GFDLNEYGIS	VIYADGRRTFYADSVK	GEIAGTFFS	0.96	6 of 6
GFNLDEYGIS	VIYADGRRTFYIDSVK	GEVAGTFDF	1.01	6 of 6
GFDLNSYGIS	VIYSDGRRTFYVDSVK	GKQAGTFDS	1.01	6 of 6
GFGLNSYGIS	VIYSDGRRTFYADSVK	GHAAGTFDT	1.04	6 of 6
GFELNSYGIS	VIYSDGRRTFYIDSVK	GKTAGTFDS	1.17	6 of 6
GFTLNDYGIS	VIYSDGRRTFYIDSVK	GRAAGTFDK	1.31	5 of 6
GFTLDSYGIS	VIYADGRRTFYGDSVK	GRAAGTFRS	1.32	1 of 6
GFTLNSYGIS	VIYSDGRRTFYIDSVK	GGAAGTFDT	1.42	5 of 6
GFSLDDYGIS	VIYADGRRTMYAESVK	GQIAGSLFN	1.54	1 of 6
GFTLNSYGIS	VIYSDGRRTFYSDDVK	GEAAGTFKS	1.59	5 of 6
GFTLNSYGIS	VIYSDGLRTFYGDSVK	GRAAGTFDS	1.60	1 of 6
GFTLDSYGIS	VIYADGRRTFYGDSVK	GRAAGTFHS	1.72	5 of 6
GHDLNSYGIS	VIYSDGRRTFYIDSVE	GRAAGTFDS	2.04	6 of 6
GFDLNEYGIS	VIYADGMRTAYTDSVK	GEVAGTFDS	2.18	2 of 6
GFDLNSYGIS	VIYSDGRRTFYSDSVK	GRAAGHFNS	2.50	1 of 6
GESINSYGIS	VIYSDGRRTFYGDSVK	GRAAGTFDS	2.95	4 of 6
GFTLESYGIS	VIYSDGRRTFYGDSVK	GRASGTFDS	3.28	1 of 6
GFTLNLYGIS	VIYSDGRRTFYGDSVK	GRAAGKFDS	nd	0 of 6
GFTLNSYGIS	VIYSDGRRTFYQDSVK	GHAAGTFDS	nd	0 of 6
GFTLNEYGIS	VAYSDGNRTFYGDSVK	GRAAVSFDQ	nd	0 of 6
GFTLNSYGIS	VIYSDGMRTFYGDSVK	GRVAGTFDQ	nd	0 of 6
GFDLMEYGVS	VIYADGQRTYYTNKVK	GEISAGFLI	nd	0 of 6
GFQLNEYGIS	VIYADGRRTAYSQSVK	GLNGGIIDV	nd	0 of 6
GKDIEEYGIS	VIYADGMRQAYADSVK	GQVAGTGKF	nd	0 of 6
GFGLNEYGIS	VIYADGQRTSYAQSVK	DANDIIQLV	nd	0 of 6
GFDLGEYGIS	VIYADGMRSAYTDQVK	GKGANIVKH	nd	0 of 6
GFTLNDYGIS	VIYSDGYRTFYGDSVK	GSETGTFDS	nd	0 of 6
GFTLESYGIS	VIYSDGRREFYGDSVK	GRAAQTFDS	nd	0 of 6
GFCLNDYGIS	VIYSDGRRTFYIDSVK	GRAAGTFDS	nd	0 of 6
GPGLQEYGIS	VIYADGIRSAYTDDVK	GQNAGHFLV	nd	0 of 6
GFHLDEYGIS	VIYADGMRTQYDQNVK	GGIRAYFDG	nd	0 of 6
GTTLNLYGIS	VIYSDGRRTFYGDSVK	LQGAGTFDS	nd	0 of 6

Excerpt, the first 4 entries:

| CDR-H1 | CDR-H2 | CDR-H3 | log10 Kd (nM), mean | detected |
|---|---|---|---|---|
| GFDLNEYGIS | VIYADGVRTAYADDVK | GNVAGTFDV | -2.24 | 6 of 6 |
| GFDLNEYGIS | VIYADGMRTAYSDSVK | GSNAGTFDT | -1.43 | 6 of 6 |
| GFDLDEYGIS | VIYADGMRTAYADSVK | GTNAGTFDV | -1.20 | 6 of 6 |
| KFQLNSYGIS | VIYSDGRRTFYSDSVK | GRTAGTFDS | -1.07 | 1 of 6 |